The values that follow are results of earlier work, collected in patent US11020395B2, “Cycloalkyl substituted triazole compounds as agonists of the APJ receptor” (AMGEN INC., priority 2016, dated 2021).

Protein sequences, listed by entry. Tags and fused reporters are not part of them. Lines headed by an entry give the natural chain unless they say otherwise; changes in a name come on top.
UniProt P35414: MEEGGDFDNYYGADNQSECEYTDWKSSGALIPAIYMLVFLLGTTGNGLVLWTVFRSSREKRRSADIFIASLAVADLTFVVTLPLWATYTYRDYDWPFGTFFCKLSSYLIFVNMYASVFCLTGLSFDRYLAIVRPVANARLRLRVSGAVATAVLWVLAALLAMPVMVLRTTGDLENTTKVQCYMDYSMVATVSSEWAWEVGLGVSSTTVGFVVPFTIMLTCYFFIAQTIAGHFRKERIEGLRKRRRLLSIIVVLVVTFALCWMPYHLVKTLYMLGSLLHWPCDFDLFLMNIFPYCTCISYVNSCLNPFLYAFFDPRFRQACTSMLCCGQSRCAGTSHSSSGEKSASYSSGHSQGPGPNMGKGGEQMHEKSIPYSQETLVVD

The data set addresses APJ receptor (Homo sapiens (Human), UniProt P35414). The conditions noted are these: relative to apelin-36; cited from earlier work.

For Apelin-13, the “fold higher in vitro affinity to the APJ receptor than apelin-36” value is given as around 3.5 fold.
